Measurements from PMC4498724 (Drug Design, Development and Therapy, 2015).

The chains behind the UniProt entries cited, without tags or fusion partners.
UniProt P68400, whole entry: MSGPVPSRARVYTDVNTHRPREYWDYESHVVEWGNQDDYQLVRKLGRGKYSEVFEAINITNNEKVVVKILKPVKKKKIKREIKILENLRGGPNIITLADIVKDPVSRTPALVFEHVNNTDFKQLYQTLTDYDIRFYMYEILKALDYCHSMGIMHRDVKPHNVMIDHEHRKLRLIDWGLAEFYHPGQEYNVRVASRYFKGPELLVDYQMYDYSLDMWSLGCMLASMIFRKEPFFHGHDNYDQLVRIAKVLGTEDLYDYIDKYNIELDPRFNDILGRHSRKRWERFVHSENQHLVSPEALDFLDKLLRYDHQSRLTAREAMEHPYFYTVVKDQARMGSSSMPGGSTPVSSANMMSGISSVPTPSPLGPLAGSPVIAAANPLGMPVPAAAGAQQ

Biological target: human CK2 holoenzyme (Homo sapiens, UniProt P68400)
Conditions: IC50 (CK2) divided by IC50 (ABCG2) of Table 1

AGCG2/CK2: 5–27 and 5
Compound: Cc1cc(=O)c2c3c(=O)c4ccccc4c3n(CCc3ccccc3)c2c1=O [Compound 6f, 7-Methyl-5-(2-phenylethyl)-5H-indeno[1,2-b]indole-6,9,10-trione]

Values joined by “and” are separate entries in the source; they are usually repeats but may differ in a detail not shown here. Equal entries are not always repeated.
